# Ab-14 light chain CDR variants: yeast mating affinities

Target: peptide PDVDLGDISGINAS, taken from heptad repeat 2 (HR2) of SARS-CoV-2 spike.

Each scFv is VH, three GGGGS repeats, VL, as in the parent Ab-14, and differs from it in the CDRs of the light chain only.
VH: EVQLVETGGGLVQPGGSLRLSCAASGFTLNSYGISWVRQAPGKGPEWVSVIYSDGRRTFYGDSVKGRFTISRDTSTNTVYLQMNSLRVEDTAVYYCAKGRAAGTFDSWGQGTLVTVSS
VL: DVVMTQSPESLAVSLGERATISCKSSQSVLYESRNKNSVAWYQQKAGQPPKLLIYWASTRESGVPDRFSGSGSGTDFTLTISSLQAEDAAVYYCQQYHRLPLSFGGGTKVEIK

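AAYL50 was designed without a model: most single CDR substitutions and a random sample of double and triple ones. Affinity was read by AlphaSeq, a pooled yeast mating assay with surface-displayed partners. Binding brings cells together so that they mate, and sequencing counts the barcode pairs among the diploids. The ratio of observed to expected reads was calibrated, replicate by replicate, on BCL2-family standards whose Kd was known from biolayer interferometry. Mating was done three times.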

The parent's light chain CDRs are KSSQSVLYESRNKNSVA, WASTRES, QQYHRLPLS; each variant's own CDRs replace them letter for letter. All variants listed here change R34 of the VL, counted from its first residue. Values are log10 of the apparent Kd in nM; lower means stronger binding. A mean of the replicates is given; it leaves out those without a signal. Where no diploid with the target was found in any replicate, the entry reads "nd": below detection, most likely a poor binder, though not proof of it.

The variant KSSQSVLYESFNKNSVA | WASTRES | QQYHRLPLS showed 0.38 (3 of 3 replicates). With KSSQSVLYEYFNKNSVA | WASTCES | QQYHRLPLS the result was 3.79 (2 of 3 replicates). For KSSQSVLYESSNKNSVA | WASTRES | QQYHRLPIC, the assay gave 0.21 (3 of 3 replicates). The variant KSTQSSLYESLNKNSVA | WASTRES | QQYHRLPLS gave 0.84 (3 of 3 replicates). The variant KSSQSVLYESMNKNSVA | WASTMES | QLYHRLPLS showed 1.92 (3 of 3 replicates). The variant KSSQSVLYESLNKNSVA | WASTREH | QQYHILPLS gave 0.58 (3 of 3 replicates). For KSSQSVLYESPNKNSVA | AASTRES | QQYHRLSLS, the assay gave 3.20 (3 of 3 replicates). The variant KSSQSVLYESTNKTSVA | WASTRES | QQYHRLLLS showed 4.78 (1 of 3 replicates).

The variant KSSQSVLYESWNKNSVA | HASTRES | QQYHRLPLS showed 1.11 (3 of 3 replicates). For KPSQSVLYESMNKNSVA | WAATRES | QQYHRLPLS, the assay gave 2.41 (3 of 3 replicates). For KSSQSTLYESPNKNSVA | WASTRES | GQYHRLPLS, the assay gave 2.88 (2 of 3 replicates). The variant KSSQSVLYESTNKNSVA | WASTPES | QQYHRLPLS gave 2.58 (3 of 3 replicates). The variant KSSQSVLYESWNKNSVA | WSSTRES | QQWHRLPLS showed nd (0 of 3 replicates). The variant KSSQSFLYESYNKNSVA | WASTMES | QQYHRLPLS gave 2.71 (1 of 3 replicates). The variant RSSQSVLYESGNKNSVA | WASTRES | QQHHRLPLS gave 0.36 (3 of 3 replicates). The variant KSSQSYLYESMNKFSVA | WASTRES | QQYHRLPLS gave nd (0 of 3 replicates).

The variant KSSQSVLYESLNKNSVE | WCSTRES | QQYHRLPLS showed nd (0 of 3 replicates). With KSSQSVLYQSDNKNSVA | WRSTRES | QQYHRLPLS the result was 2.98 (3 of 3 replicates). For KCSQSVLYESSNKNSVA | WASTRES | QQYHRLPLS, the assay gave 0.65 (3 of 3 replicates). With KSSQAQLYESTNKNSVA | WASTRES | QQYHRLPLS the result was 0.41 (3 of 3 replicates). For KSSQSVLWESYNKNSGA | WASTRES | QQYHRLPLS, the assay gave nd (0 of 3 replicates). The variant KSSQSVLYESKNKNSVA | WASTRES | WQYHMLPLS gave 4.29 (1 of 3 replicates). For NYSQSVLYESQNKNSVA | WASTRES | QQYHRLPLS, the assay gave 4.86 (1 of 3 replicates). The variant KSSQSVLYEKYNKNSVA | WASTRES | QQEHRLPLS gave 2.60 (3 of 3 replicates).

For KSSQRVLYESHNKNSVA | WASTSES | QQYHRLPLS, the assay gave nd (0 of 3 replicates). With KSSQSVLYESFNKNSVA | WASTRES | QAYERLPLS the result was 2.67 (3 of 3 replicates). With KSSQSVLYESMNKNSVA | WISTRES | QQYHRLFLS the result was 4.48 (2 of 3 replicates). The variant KSSQSVLYESWNKNSVA | HASTRES | QQYHRLILS gave 0.11 (3 of 3 replicates). For KSSQSFLYESKNKNAVA | WASTRES | QQYHRLPLS, the assay gave 0.37 (3 of 3 replicates). The variant KSSQSVLYESDNKNSVA | WASTIES | QQIHRLPLS gave nd (0 of 3 replicates). The variant KSSFSVLYESDNKNSVA | WASTRES | QQYHRLPLS gave 1.01 (3 of 3 replicates). The variant KSSQSPLYESHNKNSVA | WASTRES | QQYHRLPLS gave 1.44 (3 of 3 replicates).

The variant KSSQAVLYESLNKNSVR | WASTRES | QQYHRLPLS gave nd (0 of 3 replicates). With KSMQSVLYESHNKNSVA | WASTRMS | QQYHRLPLS the result was 0.54 (3 of 3 replicates). For KSSQSVLYESENKKSVA | WASTRES | QQYHLLPLS, the assay gave 2.20 (3 of 3 replicates). The variant KSSQSVLYESHNKNSVA | WASTREQ | QLYHRLPLS gave 1.74 (2 of 3 replicates). For KSSQSVLYEITNKNSVA | WASTREN | QQYHRLPLS, the assay gave 0.65 (3 of 3 replicates). The variant KQSQSVLYEGHNKNSVA | WASTRES | QQYHRLPLS showed 0.78 (3 of 3 replicates). The variant KSSQSVLYESMNKNEVA | WASTRES | QQYHRWPLS showed 3.20 (2 of 3 replicates). With KSSQSVLYESTNKDSMA | WASTRES | QQYHRLPLS the result was nd (0 of 3 replicates).

The variant KSSQSVLYESMNKNSVA | WASTREM | QQYHRLPLS gave 0.71 (3 of 3 replicates). For KSSQSVLYEFDNKNSVA | WASTRES | QVYHRLPLS, the assay gave 1.83 (3 of 3 replicates). The variant YSSQSVLYESMNKNSVA | WAETRES | QQYHRLPLS showed 0.94 (3 of 3 replicates). The variant ESSQSVLYESYNKNSVA | WASTRES | QQYHRLPLS gave 0.75 (3 of 3 replicates). The variant KSSQSVLYKSMNKNSAA | WASTRES | QQYHRLPLS showed 4.43 (2 of 3 replicates). For KISQSVLYESNNKNSQA | WASTRES | QQYHRLPLS, the assay gave 3.18 (1 of 3 replicates). For KSSQSVLVESWNKNSVA | WAKTRES | QQYHRLPLS, the assay gave 2.26 (3 of 3 replicates). With KSSQSVLYESANKNSVA | WASTRES | QQYPRLELS the result was 0.72 (3 of 3 replicates).

With KSSQSVLYECINKNSVA | WASTKES | QQYHRLPLS the result was 4.88 (1 of 3 replicates). For KSSQSVLYESCNKNSVA | WASYRES | QQYRRLPLS, the assay gave 2.83 (3 of 3 replicates). The variant KSSQSALYESWNKTSVA | WASTRES | QQYHRLPLS showed 2.16 (3 of 3 replicates). With KSSQSVLWESENKNSVA | WASTRES | QQYHRLPLS the result was 0.80 (3 of 3 replicates).

For reference, the parent read 0.65 as the reference entry and 1.68 as a member of this library. Nonspecific signal, from three strains lacking the peptide, appeared in 18% of pairings of library AAYL50, centred on 4.19 (5% of these signals below 2.99); values are not corrected for it.

Data: MIT Lincoln Laboratory AlphaSeq set, Engelhart et al. 2022, doi:10.1038/s41597-022-01779-4, as distributed in FLAb.